Measurements taken from article PMC6155811, “Effect of Phenolic Compounds from Elderflowers on Glucose- and Fatty Acid Uptake in Human Myotubes and HepG2-Cells” (Molecules : A Journal of Synthetic Chemistry and Natural …, 2017).

The chains behind the UniProt entries cited, without tags or fusion partners. Where a name states a change or a piece, a line headed by the entry shows the natural chain unless it says otherwise.
UniProt P80457, whole entry: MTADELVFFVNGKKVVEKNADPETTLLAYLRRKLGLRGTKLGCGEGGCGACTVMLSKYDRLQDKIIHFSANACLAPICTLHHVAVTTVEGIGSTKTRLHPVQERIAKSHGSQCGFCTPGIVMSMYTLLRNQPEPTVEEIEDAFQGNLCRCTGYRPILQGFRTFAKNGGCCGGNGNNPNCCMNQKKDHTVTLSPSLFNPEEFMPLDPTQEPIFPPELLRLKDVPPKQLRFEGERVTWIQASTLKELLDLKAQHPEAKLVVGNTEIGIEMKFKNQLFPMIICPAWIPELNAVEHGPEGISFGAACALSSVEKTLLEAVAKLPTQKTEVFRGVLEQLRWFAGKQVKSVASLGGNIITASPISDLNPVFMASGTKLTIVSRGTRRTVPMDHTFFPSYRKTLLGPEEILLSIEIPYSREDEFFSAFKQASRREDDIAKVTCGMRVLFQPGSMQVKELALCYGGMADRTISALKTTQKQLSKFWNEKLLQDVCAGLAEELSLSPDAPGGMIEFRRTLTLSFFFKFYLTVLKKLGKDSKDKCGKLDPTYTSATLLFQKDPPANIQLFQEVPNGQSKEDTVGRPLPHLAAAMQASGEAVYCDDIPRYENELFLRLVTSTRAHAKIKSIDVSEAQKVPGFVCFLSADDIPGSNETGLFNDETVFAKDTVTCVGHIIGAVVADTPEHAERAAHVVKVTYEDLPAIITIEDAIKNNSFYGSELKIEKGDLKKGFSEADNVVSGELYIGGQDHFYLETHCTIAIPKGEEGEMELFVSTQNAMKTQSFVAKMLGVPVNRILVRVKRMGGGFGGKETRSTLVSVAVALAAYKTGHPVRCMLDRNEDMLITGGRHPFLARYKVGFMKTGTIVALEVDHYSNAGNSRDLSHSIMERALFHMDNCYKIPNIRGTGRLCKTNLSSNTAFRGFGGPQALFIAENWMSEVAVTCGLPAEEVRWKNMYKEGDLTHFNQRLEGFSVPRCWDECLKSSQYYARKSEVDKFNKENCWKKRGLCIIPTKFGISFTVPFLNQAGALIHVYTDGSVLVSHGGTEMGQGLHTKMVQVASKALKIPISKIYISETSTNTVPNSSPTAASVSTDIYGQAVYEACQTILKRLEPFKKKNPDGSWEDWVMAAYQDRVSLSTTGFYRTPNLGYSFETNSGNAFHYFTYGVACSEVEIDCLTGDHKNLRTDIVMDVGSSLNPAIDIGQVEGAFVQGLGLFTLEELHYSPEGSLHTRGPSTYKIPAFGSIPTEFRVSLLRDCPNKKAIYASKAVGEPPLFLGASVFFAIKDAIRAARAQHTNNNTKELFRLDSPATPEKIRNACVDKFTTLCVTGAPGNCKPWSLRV
UniProt P53341: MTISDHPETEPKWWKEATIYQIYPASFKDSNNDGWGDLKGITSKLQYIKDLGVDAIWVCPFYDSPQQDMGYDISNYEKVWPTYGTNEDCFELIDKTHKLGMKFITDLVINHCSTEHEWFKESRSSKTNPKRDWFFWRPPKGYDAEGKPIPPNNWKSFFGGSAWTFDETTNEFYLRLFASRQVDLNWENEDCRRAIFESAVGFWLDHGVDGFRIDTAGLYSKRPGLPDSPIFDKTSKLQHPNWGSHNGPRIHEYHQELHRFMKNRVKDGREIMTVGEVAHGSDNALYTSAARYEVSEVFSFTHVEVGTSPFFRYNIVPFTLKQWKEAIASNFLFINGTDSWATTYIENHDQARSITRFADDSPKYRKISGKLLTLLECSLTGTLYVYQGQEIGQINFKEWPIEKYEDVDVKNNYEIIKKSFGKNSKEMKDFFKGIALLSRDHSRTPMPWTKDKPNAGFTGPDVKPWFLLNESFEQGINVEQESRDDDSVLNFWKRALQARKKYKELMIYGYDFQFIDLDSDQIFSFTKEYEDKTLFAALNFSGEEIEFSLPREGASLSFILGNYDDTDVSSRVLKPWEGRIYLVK

Assays:
[1] = biological target: T1, xanthine oxidase from bovine milk (Bos taurus, UniProt P80457); assay: Inhibition of xanthine oxidase; type: biochemical; details: phenolic compounds and metabolites; IC50 ± SD; read-out: XO IC50
T1 construct: xanthine oxidase from bovine milk; purchased Sigma-Aldrich (St. Louis, MO, USA); host or cells: bovine milk
Method: The XO inhibitory activity with hypoxanthine as the substrate was carried out previously described. Test substances were dissolved in DMSO or water.

[2] = biological target: T2, Baker's yeast α-glucosidase (Saccharomyces cerevisiae, UniProt P53341); assay: biochemical; details: α-Glucosidase IC50, phenolic compounds and metabolites; IC50 ± SD
T2 construct: purchased Sigma-Aldrich Chemie GmbH (Steinheim, Germany)
Method: The α-glucosidase inhibitory activity of the extracts was assessed according to the method described by Ranilla, et al.. Baker’s yeast α-glucosidase (EC 3.2.1.20) was purchased from Sigma-Aldrich Chemie GmbH (Steinheim, Germany).

| IC50 [1] [µM] | Structure (SMILES) | IC50 [2] [µM] |
| --- | --- | --- |
| 1.8 ± 0.3 | O=c1c(O)c(-c2ccc(O)cc2)oc2cc(O)cc(O)c12 [Kaempferol] | – |
| – | O=C1C[C@@H](c2ccc(O)cc2)Oc2cc(O)cc(O)c21 [Naringenin] | 7.5 ± 1.1 |
